These results are taken from publication PMC6443996 (FEBS Open Bio, 2019).

The experiment addresses CNOT1 (MIF4G and DUF3819 domains; […]) (human). The experiment is described as follows: reconstitution of a complex from purified parts; pentameric central module reconstituted after separate expression and purification of the nuclease module and the CNOT1-CNOT9 dimeric complex; 14% SDS/PAGE, Coomassie Brilliant Blue. Conditions: both partners purified.

B1: Caf1 (D40A) (enzyme)
chain: not shown
notes: also called CNOT7 D40A
In the case of B1, the binding result is “binds”.
